PGC1a acetyl inh – inhibitors of PGC1a acetylation signal, primary screen, cell-based, U2OS, AlphaScreen, inhibitor mode. AlphaScreen anti-acetyl-lysine; with virally co-expressed GCN5 acetyltransferase. inhibition, % at 15.6 µM. 350,000 tested, 0.17% active;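 active means every replicate shows inhibition of at least 40%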;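 further: 0% = neutral control wells and 100% = positive control wells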
MITF act – activators of MITF-driven TRPM1 promoter reporter, primary screen, cell-based, SK-MEL-5, luciferase, single point; SK-MEL-5 TRPM1-promoter luciferase, 24 h; % of positive control, neutral wells = 0; activation, % at 12.5 µM; 300,000 tested, 0.75% active;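 active means mean activation of at least 80% with every replicate also reaching 80%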;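 further: 0% = neutral control wells and 100% = parthenolide positive control wells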
TRPM1 prom inh – inhibitors of MITF-dependent TRPM1 promoter reporter, primary screen, cell-based, SK-MEL-5, single point, luciferase | inhibition, % at 12.5 µM | SK-MEL-5 TRPM1 promoter luciferase, 24 h | 330,000 tested, 0.83% active;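 active means mean inhibition across replicates of 60% or more, whatever share of single replicates reaches that level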
Yeast UUG start – alters start codon recognition fidelity in yeast. S. cerevisiae UUG-firefly luciferase reporter, luminescence/redox ratio. AID 602363. activity score, % at 18.7 µM. hit rate 0.13% among 350,000;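 active = replicate mean at a twofold rise or more, about +100% in these data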;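 note: firefly luciferase made from a UUG start codon reports start codon fidelity; reporter light over untreated wells divided by growth signal over untreated wells; some hits fall short of that in this replicate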
Wnt bcat act – Wnt/beta-catenin pathway activators, primary screen, cell-based, plate reader, single point; 300,000 tested, 1.2% active; Wnt/beta-catenin reporter cell assay, activator; activation, % at 9.35 µM; in the data active means activation above about 30%, passing the limit was not always enough;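 further: 0% = neutral control wells and 100% = positive control wells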
miR122 inh – miR-122 Renilla sensor signal increase in Huh7, primary screen, miR-122 inhibitor project, cell-based, single point, plate reader; Huh7 miR-122 Renilla luciferase sensor, 48 h; neutral wells = 0, positive control = 100; activation (reporter increase), % at 12.5 µM; 340,000 tested, 0.3% active;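 active means mean replicate activation score at least 90 and every replicate individually at or above 90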;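 further: higher luciferase means less miR-122 activity so hits act as miR-122 inhibitors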
An asterisk follows results filed as active; nt = not tested or not shown; ! = repeats disagree; [ ] = dose if it differs, or a comment. Shown are actives, neighbours in structure and some others; about 2.1% of the full set was active somewhere.

Every second line gives: Yeast UUG start	TRPM1 prom inh	PGC1a acetyl inh	Wnt bcat act	MITF act	miR122 inh
- CC(C)NC(=O)N(C)C[C@H]1OCCCC[C@@H](C)Oc2ccc(NS(=O)(=O)c3cn(C)cn3)cc2C(=O)N([C@@H](C)CO)C[C@@H]1C
  -6.9	nt	1.0	nt	nt	1.7[16.7 µM]
- COc1ccc(S(=O)(=O)Nc2ccc3c(c2)C(=O)N([C@H](C)CO)C[C@@H](C)[C@H](CN(C)S(=O)(=O)c2c(C)noc2C)OCCCC[C@H](C)O3)cc1
  -0.3	nt	-6.3	nt	nt	-1.0[16.7 µM]
- Cc1ccc(-c2ccc(CO)o2)cc1N
  nt	-9.2	3.7	2.1	9.2	-3.3
- CCOC(=O)c1ccc(-c2ccc(CO)o2)cc1
  nt	-55.7	2.8	45.1*	nt	1.0
- C[C@@H]1CN([C@H](C)CO)C(=O)c2cccc(NS(C)(=O)=O)c2O[C@@H]1CN(C)CC1CCCCC1
  -8.1	nt	8.9	nt	nt	6.1[16.7 µM]
- Cc1ccccc1-c1nnc(CS(=O)(=O)c2ccccc2)o1
  -27.4	-105.9	19.1	-3.1	103.2*	-2.6
- Cc1ccccc1-c1nnc(-c2ccccc2)o1
  -4.4	-41.0	-11.4	nt	40.8	17.0
- C[C@H](CO)N1C[C@H](C)[C@H](CN(C)S(=O)(=O)c2ccc(F)cc2)Oc2ccc(NC(=O)CCC(F)(F)F)cc2CC1=O
  0.5	nt	1.1	nt	nt	-8.3[16.7 µM]
- O=C(c1nnc(-c2ccncc2)o1)c1ccccc1Cl
  0.9	2.6	11.2	35.1*	-1.3	nt
- O=C(c1ccccc1)c1nnc(-c2ccncc2)o1
  -40.9	-1.2	1.0	nt	3.0	-2.8
- COC(=O)c1sccc1-c1ccc(C(=O)Nc2cccnc2)o1
  -12.5	-94.4	6.7	4.7	97.5*	-0.5
- COC(=O)c1sccc1NC(=O)c1cccnc1
  nt	15.5	nt	1.1	nt	10.0
- O=C1c2ccccc2C2=Nc3ccccc3SC(c3cccc(F)c3)C12 (stereo unspecified)
  -20.6	-0.5	nt	-9.7	0.8	246.3*
- COC(=O)c1cc(C)nc2c1C(=O)C(=O)C=C2N1CCOCC1
  -46.8	84.0*	nt	-10.3	nt	nt
- CN1CCN(C(=O)C[C@H]2C[C@@H]3c4cc(NC(=O)CC5CC5)ccc4O[C@@H]3[C@H](CO)O2)CC1
  -22.7	nt	-16.2	nt	nt	2.5[16.7 µM]
- Cn1c(=NN=Cc2ccccc2OCCO)sc2ccccc21
  -9.3	nt	-7.0	43.3*	nt	4.4
- COc1ccccc1N=c1sc2ccccc2n1C
  nt	-4.4	nt	1.4	7.5	8.6
- O=C(C[C@@H]1C[C@@H]2c3cc(NC(=O)c4cccnc4)ccc3O[C@@H]2[C@H](CO)O1)NC1CCCC1
  nt	nt	-3.1	nt	nt	nt
- O=C(Nc1ccc(C(F)(F)F)cc1)N1C[C@@H]2N[C@H](C1)C2c1ccc(/C=C/c2ccccc2)cc1 (stereo partly specified)
  nt	nt	73.5*!	nt	nt	nt
- COc1ccc(S(=O)(=O)Nc2cccc3c2O[C@H](CN(C)C(=O)Nc2ccc(F)cc2)[C@@H](C)CN([C@@H](C)CO)C3=O)cc1
  1.0	nt	-6.3	nt	nt	18.8[16.7 µM]

2 of the compounds above, field by field.
SMILES: COc1ccccc1N=c1sc2ccccc2n1C
- Yeast UUG start = nt
- TRPM1 prom inh = -4.4
- PGC1a acetyl inh = nt
- Wnt bcat act = 1.4
- MITF act = 7.5
- miR122 inh = 8.6
SMILES: O=C(Nc1ccc(C(F)(F)F)cc1)N1C[C@@H]2N[C@H](C1)C2c1ccc(/C=C/c2ccccc2)cc1 (stereo partly specified)
- Yeast UUG start = nt
- TRPM1 prom inh = nt
- PGC1a acetyl inh = 73.5*!
- Wnt bcat act = nt
- MITF act = nt
- miR122 inh = nt

Next part:
Every second line gives: Yeast UUG start	TRPM1 prom inh	PGC1a acetyl inh	Wnt bcat act	MITF act	miR122 inh
- CC(C)(C)c1ccc(-c2nnc(N)s2)cc1
  -22.4	-60.9	nt	9.2	60.1	11.5
- CC(C)(C)c1ccc(-c2nnc(N)o2)cc1
  nt	-28.5	0.1	42.5*	31.6	nt
- C[C@@H](O)C#Cc1ccc([C@@H]2[C@@H](CO)N3CCCCN(S(=O)(=O)c4ccccc4)C[C@@H]23)cc1
  17.6	nt	3.3	nt	nt	5.8[16.7 µM]
- Nc1ccc(Oc2cccc(Oc3ccc(N)cc3)c2)cc1
  nt	81.1*	nt	-18.0	-80.8	nt
- Cc1cccc(Oc2ccc(N)cc2)c1
  nt	1.2	nt	nt	nt	nt
- O=S(=O)(c1ccc(Cl)cc1)N1CCN(Cc2ccc(O)c3ncccc23)CC1
  nt	64.0*	10.6	35.7*	-64.2	nt
- CC(C)NC(=O)N1[C@H](CO)[C@@H](c2ccccc2)[C@H]1CN(C)C(=O)c1cccnc1
  0.9	nt	-8.5	nt	nt	-14.3[16.7 µM]
- O=C(NC1CC1)c1ccc(-c2cnc3cccnn23)cc1
  -20.4	nt	35.6	34.6*	nt	5.2
- COCC(=O)N(C)C[C@H]1Oc2cc(-c3ccc(F)cc3)ccc2S(=O)(=O)N([C@@H](C)CO)C[C@H]1C
  -3.9	nt	0.8	nt	nt	-12.4[16.7 µM]
- Fc1ccc(-n2nnc(-c3ccccc3Cl)n2)cc1
  -13.5	9.6	15.0	-1.1	nt	-2.4
- Fc1ccc(-n2nnc(-c3nccs3)n2)cc1
  -25.3	-44.2	nt	26.5	43.2	136.3*
- Cc1ccc(NC(=O)c2scc3c2CCCC3)cc1
  nt	-99.3	nt	14.6	115.1*	nt
- Cc1ccc(NC(=O)c2cc3c(s2)CCCC3)cc1
  -25.1	-151.6	-8.9	60.6*	147.7*	-2.5
- Cc1ccc(C(=O)Nc2ccc3c(c2)CCC3)cc1
  nt	22.8	-2.1	-0.1	-19.3	5.4
- CN(C)S(=O)(=O)c1ccc2c(c1)nc(CCC(=O)NCc1ccc(Cl)cc1)n2C
  nt	18.9	7.6	0.0	-29.6	11.4
- CN(C)S(=O)(=O)c1ccc2c(c1)nc(CCC(=O)NCC1CCCCC1)n2C
  -17.7	-4.0	-7.2	-8.9	nt	164.0*
- COC1=C(C)C(=O)C2=C(C1=O)C1C3CC4=C(C(=O)C(OC)=C(C)C4=O)C(CNC(=O)C(C)=O)N3C(C#N)C(C2)N1C (stereo unspecified)
  nt	114.1*	42.1	-26.2	nt	-14.0
- CN(C(=S)NCCN1CCOCC1)C(c1ccccc1)c1ccccc1
  nt	6.3	nt	41.8*	-4.7	nt
- S=C(NCCc1ccccc1)NCCN1CCOCC1
  -23.9	-9.5	3.5	-0.4	nt	-0.2
- CCCC#Cc1ccc2c(c1)O[C@@H](CN(C)Cc1ccncc1)[C@H](C)CN([C@@H](C)CO)S2(=O)=O
  -5.8	nt	6.2	nt	nt	7.4[16.7 µM]

In the list so far, four contain a thiophene ring, fused or not.
Every second line gives: Yeast UUG start	TRPM1 prom inh	PGC1a acetyl inh	Wnt bcat act	MITF act	miR122 inh
- COC(=O)c1sccc1-c1ccc(C(=O)Nc2cccnc2)o1
  -12.5	-94.4	6.7	4.7	97.5*	-0.5
- COC(=O)c1sccc1NC(=O)c1cccnc1
  nt	15.5	nt	1.1	nt	10.0
- Cc1ccc(NC(=O)c2scc3c2CCCC3)cc1
  nt	-99.3	nt	14.6	115.1*	nt
- Cc1ccc(NC(=O)c2cc3c(s2)CCCC3)cc1
  -25.1	-151.6	-8.9	60.6*	147.7*	-2.5

Remaining list, next part.
Every second line gives: Yeast UUG start	TRPM1 prom inh	PGC1a acetyl inh	Wnt bcat act	MITF act	miR122 inh
- O=c1c2ccccc2nc(SCc2nnc(-c3ccccc3Br)o2)n1-c1ccccc1
  1.9	-4.0	10.0	0.0	-3.0	-1.6
- Brc1ccccc1-c1nnc(CSc2nncn2-c2ccccc2)o1
  -19.6	1.9	4.8	35.4*	1.5	-4.6
- Cc1ccccc1Cn1c(=N)n(CC(O)c2ccco2)c2ccccc21 (stereo unspecified)
  -14.4	-3.8	37.8	nt	4.6	1.7
- CC(C)(C)c1ccc(Cn2c(=N)n(CC(O)c3ccco3)c3ccccc32)cc1 (stereo unspecified)
  nt	98.0*	-15.4	nt	-97.9	nt
- O=C(CC1CC1)N1CC(=O)N2[C@H](CO)[C@@H](c3ccc(/C=C/c4ccccc4)cc3)[C@H]2C1
  nt	nt	-9.8	nt	nt	nt
- COc1ccccc1NC(=O)N[C@@H]1CC[C@@H](CCNC(=O)c2ccc3c(c2)OCO3)O[C@@H]1CO
  8.8	nt	13.8	nt	nt	-18.1[16.7 µM]
- O=C(Nc1ccc(Cl)cc1F)c1ccccc1Br
  nt	-68.1	nt	49.2*	65.4	nt
- O=C(Nc1ccc(Cl)cc1F)c1cccc2ccccc12
  0.0	-21.9	7.2	9.9	nt	8.7
- C=CCSc1n[nH]c(-c2ccc(OC)cc2)n1
  4.7	-100.0	-0.3	nt	101.5*	-3.1
